# PubChem BioAssay AID751 (NMMLSC, 2007)
# This is a selection; strong and weak results do not stand in their true shares. Active and inactive are the calls of the source.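 Rule for the calls: active = inhibition of disassembly above about 33% (limit read from the data); inconclusive = likely self-fluorescent, control bead median signal at least 40; inactive = the rest.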
# Test system: 26S proteasome (yeast, GFP-tagged, ATP-dependent disassembly)
# Experiment: inhibitors of ATP-driven 26S proteasome dissociation, primary screen, biochemical, bead-based flow cytometry, GFP-tagged proteasome (AID 751);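 note: plate controls were ATP control with full disassembly for no effect and ATP-gamma-S intact proteasomes for full effect; higher percent means more bead fluorescence retained so stronger block of disassembly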
# Settings: anti-FLAG beads, active compounds read high, concentration not given here
row,SMILES,inhibition of disassembly
1,Fc1ccccc1NC1CCN(Cc2ccccc2)CC1,inactive: 0.6%
2,N#CC1(Nc2ccccc2)CCN(CCc2ccccc2)CC1,inactive: -2.39%
